{
  "source": "patent US20200308309A1",
  "about": "(Novartis, published 2020)",
  "binders": {"B1": {"name": "bbmAb1 (bispecific antibody, human IgG1, kappa, lambda, L234A L235A)", "heavy 1": "not shown", "light 1": "not shown", "heavy 2": "not shown", "light 2": "EIVLTQSPDFQSVTPKEKVTITCRASQSIGSSLHWYQQKPDQSPKLLIKYASQSFSGVPSRFSGSGSGTDFTLTINSLEAEDAAAYYCHQSSSLPFTFGPGTKVDIKRTVAAPSVFIFPPSDEQLKSGTASVVCLLNNFYPREAKVQWKVDNALQSGNSQESVTEQDSKDSTYSLSSTLTLSKADYEKHKVYACEVTHQGLSSPVTKSFNRGEC"}},
  "molecular_target": "Recombinant marmoset IL-1β (marmoset, UniProt U3E018 117-268)",
  "assay": "cell-based or functional assay",
  "data": [
    {"binder": "B1", "values": [
      {"measurement": "IL-6 prod. in dermal fibroblasts stimulated with recombinant marmoset IL-1β (18 pM), IC50, Exp. A (marmoset dermal fibroblasts by the column head)", "value": 0.174, "unit": "nM"},
      {"measurement": "IL-6 prod. in dermal fibroblasts stimulated with recombinant marmoset IL-1β (18 pM), IC50, Exp. B (marmoset or human fibroblasts: column heads unclear)", "value": 0.364, "unit": "nM"},
      {"measurement": "IL-6 prod. in dermal fibroblasts stimulated with recombinant marmoset IL-1β (18 pM), IC50, Exp. C (marmoset or human fibroblasts: column heads unclear)", "value": 0.22, "unit": "nM"}
    ]}
  ]
}
